Hits are enriched below; roughly 2.2% of the tested compounds scored in any of these assays.
ERp5 block: inhibitors of human ERp5. ERp5 insulin aggregation, absorbance 650 nm, 90 min. 350,000 tested, 0.05% active. inhibition, % at 9.99 µM;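 active = mean replicate inhibition above about 25%, with every replicate also reaching it, limit read from the data, passing the limit was not always enough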
PDI turbidity: inhibitors of human protein disulfide isomerase | P07237 | PDI insulin aggregation turbidity, A650, 90 min | inhibition, % at 10 µM | 350,000 tested, 0.052% active;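 active = mean inhibition across replicates of 30% or more, whatever share of single replicates reach that level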
S100A4 inh HTS: blocks human S100A4 binding to myosin IIA peptide. P26447. S100A4/TAMRA-MyoIIA peptide fluorescence polarization. inhibition, % at 10.7 µM. 360,000 tested, 0.14% active;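 active = mean inhibition of at least 70% across replicates, with every replicate also reaching that level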
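Test system: S100A4 monomer protein. Medium: HEPES buffer with Ca2+, pH 7.2. Reagent: fluorescent myosin IIA peptide, 5 nM. Compound dosing: single-point compound testing. Timing: 5 min between mix addition and reading. Benchmarks: DMSO neutral and TFP positive wells.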
FGF22 binding-1: binders of recombinant human FGF22 by thermal shift; SYPRO orange fluorescence; percent of sucrose octasulfate shift, DMSO zero; activity (Tm shift, normalised), % at 9.99 µM; 340,000 tested, 1.5% active; Q9HCT0; AID 651658;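 active = mean Tm shift, scaled 0 neutral to 100 positive control, at about 1.3% or above, every replicate too, limit read from the data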
UUG fidelity: modulators of start codon recognition fidelity in yeast; S. cerevisiae UUG-firefly luciferase reporter, luminescence/redox ratio; activity score, % at 18.7 µM; hit rate 0.13% among 350,000; AID 602363;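 active = replicate mean at a twofold rise or more, about +100% in these data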;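 note: firefly luciferase made from a UUG start codon reports start codon fidelity; reporter light over untreated wells divided by growth signal over untreated wells; some hits fall short of that in this replicate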
SIRT5 inh: blocks human SIRT5 desuccinylation of peptide; inhibition, % at 15 µM; Purified SirT5, succinyl-peptide AMC, trypsin-coupled fluorescence; Q9NXA8; AID 652115; 330,000 tested, 1.1% active; in the data active = inhibition above about 15%
FGF22 binding-2: binds human FGF22 shifting its melting temperature; shares compounds with FGF22 binding-1; recombinant FGF22 thermal shift, SYPRO orange fluorescence; thermal shift activity, °C (ΔTm) at 38 µM; 1,000 tested, 2% active;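 active = fitted rise in melting shift crosses a set limit at or below the top valid dose tested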
FGF22 TSA: binds human FGF22 shifting its melting temperature. shares compounds with FGF22 binding-1. Thermal shift assay, SYPRO orange, melting temperature shift. Tm shift (activity), % at 38 µM. 50 tested, under 10 active. AID 743017;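 active = compounds whose fitted dose curve of melting temperature shift rises past a set threshold within the tested doses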
TSA no protein: compound-only SYPRO artifact for FGF22 binders; AID 743019; compound-only SYPRO orange thermal shift counter-screen, no protein; 1,000 tested, 2% active; shares compounds with FGF22 binding-1; AC50, µM (titrated, usually from 38 µM);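 active = rising signal whose fitted curve reaches the 0.54 level within the top valid dose, showing a melting point, actives reach about 13 µM in these data; inactive = the rest, including activity in the opposite direction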; note: value is where the raw curve crosses a fixed level and not half-maximal
Starred values were filed as active, the others as inactive; i = inactive; · = no result; [ ] = another dose, or the depositor's remark.

SMILES	ERp5 block	PDI turbidity	S100A4 inh HTS	FGF22 binding-1	UUG fidelity	SIRT5 inh	FGF22 binding-2	TSA no protein	others
Cc1ccc(CN2CCNC(=O)C2CC(=O)N(C)C2CCCCC2)cc1 (stereo not drawn)	7.7	15.2	-4.2	1.5*	-2.9	-0.1	0.102	i
C[C@@H](NC(=O)C[C@@H]1C[C@H]2c3cc(NC(=O)CN(C)C)ccc3O[C@H]2[C@@H](CO)O1)c1ccccc1	-1.5	·	1.3	-0.1	5.1	0.4	·	·
Nc1cc(S(=O)(=O)Nc2ccc(Br)cc2)ccc1Cl	6.3	4.6	-0.1	-0.2	·	-0.2	·	·
COc1ccc(NS(=O)(=O)c2ccc(Cl)c(N)c2)cc1Br	-1.9	9.9	-2.6	1.3*	-14.1	-2.2	-0.06	i
Cc1cccc(S(=O)(=O)N2C[C@H](O)COC[C@H]3O[C@H](CC(=O)Nc4ccccc4)CC[C@@H]32)c1	-1.9	·	0.4	1.8*	·	-3.4	-0.025[42 µM]	i
O=C(C[C@H]1CC[C@@H]2[C@H](COC[C@H](O)CN2S(=O)(=O)c2cccc(F)c2)O1)Nc1ccccc1	-3.4	·	-8.1	2.0*	·	-2.7	0.132[42 µM]	i
O=C(C[C@@H]1CC[C@H]2[C@@H](COC[C@@H](O)CN2Cc2cccc(C(F)(F)F)c2)O1)NCc1ccncc1	3.8	·	4.1	14.1*	0.4	-1.4	0.001	i
O=C(C[C@H]1CC[C@H]2[C@@H](COC[C@@H](O)CN2S(=O)(=O)c2cccc(F)c2)O1)Nc1ccccc1	0.1	·	2.0	-0.1	·	0.5	·	·
O=C(C[C@H]1CC[C@H]2[C@@H](COC[C@@H](O)CN2S(=O)(=O)c2cccc(F)c2)O1)Nc1ccc(-c2ccccc2)cc1	-0.5	·	3.7	3.3*	·	-4.3	0.062	i
CS(=O)(=O)Nc1ccc2c(c1)[C@H]1C[C@H](CC(=O)NCc3ccccn3)O[C@H](CO)[C@H]1O2	-0.2	·	11.3	-0.1	·	-2.8	·	·
Cc1ccc(S(=O)(=O)N2C[C@H](O)COC[C@H]3O[C@@H](CC(=O)NCc4ccc(Cl)c(Cl)c4)CC[C@@H]32)cc1	-0.9	·	10.0	0.1	5.4	-0.5	·	·
Cc1ccc(S(=O)(=O)N2C[C@H](O)COC[C@H]3O[C@H](CC(=O)NCc4ccc(Cl)c(Cl)c4)CC[C@@H]32)cc1	2.5	·	1.2	1.4*	8.1	-0.3	0.016[42 µM]	i	FGF22 TSA=0.2
Brc1ccccc1/C=N/Nc1ccccn1	2.1	1.8	-0.9	2.2*	1.6	-1.6	0.2	i
Cn1ncc2c(Nc3ccc(O)cc3)nc(Cl)nc21	-2.7	-4.3	2.7	26.4*	-9.1	3.4	-0.002	i
C[C@@H]1CCCCO[C@@H](CN(C)S(=O)(=O)c2cccs2)[C@H](C)CN([C@H](C)CO)C(=O)c2cc(NC(=O)Nc3ccccc3)ccc2O1	-1.7	·	-0.1	0.1	-6.5	7.5	·	·
O=C(O)C1CCN(S(=O)(=O)Cc2ccccc2)CC1	7.3	-0.7	-0.3	11.7*	-16.2	0.9	0.179	i
Fc1ccccc1Nc1n[nH]c(=S)s1	-2.5	-10.5	-16.9	1.6*	·	2.1	-0.106	i
O=C(COC(=O)c1ccccc1NCCO)NCCC1=CCCCC1	10.4	4.8	-2.4	-0.3	-8.5	-13.4	·	·
O=C(COC(=O)c1ccccc1Br)NCCC1=CCCCC1	-1.4	1.1	-1.3	23.9*	-0.9	0.8	0.053	i
COc1ccc(S(=O)(=O)Nc2ccc3c(c2)C(=O)N([C@H](C)CO)C[C@@H](C)[C@H](CN(C)C(=O)CCC(F)(F)F)OCCCC[C@@H](C)O3)cc1	-0.7	·	-38.7	-0.9	4.5	0.6	·	·
C[C@H]1CN([C@@H](C)CO)C(=O)c2cc(-c3ccc(F)cc3)cnc2O[C@@H]1CN(C)C(=O)Nc1ccc(F)cc1	·	·	·	·	-3.2	·	·	·
C[C@H](CO)N1C[C@H](C)[C@@H](CN(C)C(=O)Nc2ccc(F)cc2)Oc2ccc(NC(=O)c3ccncc3)cc2C1=O	0.5	·	-0.5	-0.1	-1.2	2.4	·	·
O=C(C[C@H]1C=C[C@H](NC(=O)c2cccc(F)c2)[C@H](CO)O1)NCCN1CCCC1	4.6	·	3.7	0.0	10.7	0.5	·	·
O=C(N[C@@H]1C=C[C@@H](CC(=O)N2CCCCC2)O[C@@H]1CO)c1cccc(F)c1	1.7	·	-61.9	1.8*	-7.7	-0.2	-0.09[42 µM]	i
Cc1nc2c(C)cccc2cc1C(=O)N/N=C/c1ccc(O)cc1	3.4	10.8	6.4	2.2*	·	1.4	-0.391	i
O=C(N/N=C/c1ccncc1)c1cccc(N/N=C/c2ccncc2)c1	2.5	2.7	-4.2	1.5*	·	0.9	0.004	i
O=C(N/N=C/c1ccncc1)c1cccc(NC(=O)c2ccc(Cl)cc2)c1	-0.5	26.3	7.2	2.4*	·	1.6	0.066	i
O=C(N/N=C/c1ccc(O)cc1)c1cccc(N/N=C/c2ccc(O)cc2)c1	-0.4	7.7	-11.6	1.7*	-16.6	0.3	0.261	i
O=C(N/N=C/c1ccc(F)cc1)c1cccc(NC(=O)c2ccc(F)cc2)c1	1.5	15.9	-0.7	-0.3	-6.7	-3.0	·	·
O=C(N/N=C/c1ccc(O)cc1)c1cccc(C(F)(F)F)c1	·	5.2	·	·	·	·	·	·
Cc1cccc2cc(/C=N/NC(=O)c3ccccc3O)c(Cl)nc12	-2.1	-7.6	-7.2	-0.4	·	7.7	·	·
CCNC(=O)C[C@@H]1CC[C@H]2[C@@H](COC[C@H](O)CN2C(=O)CC)O1	-2.8	·	-25.0	0.0	-7.9	-2.2	·	·
COC(=O)c1ccc(/C=N/NC(=O)c2ccc3nc[nH]c3c2)cc1	0.3	-4.9	-2.6	0.0	-17.6	-4.0	·	·
O=C(N/N=C/c1ccc(Cl)cc1)c1ccc2nc[nH]c2c1	-1.9	2.2	3.7	2.5*	-10.6	·	0.017	i
C[C@@H]1CN([C@H](C)CO)C(=O)c2cc(NS(C)(=O)=O)ccc2O[C@@H]1CN(C)Cc1ccc(Cl)c(Cl)c1	7.9	·	-3.9	0.1	-2.6	-0.4	·	·
CCCNC(=O)COCc1cc(-c2ccc3c(c2)OCO3)on1	-0.8	-6.3	-2.4	29.4*	-10.2	3.5	0.022	i
CCCCNC(=O)COCc1cc(-c2ccc3c(c2)OCO3)on1	0.4	11.3	-21.5	0.1	-13.6	-2.0	·	·
COCC(=O)N(C)C[C@@H]1Oc2cc(-c3ccccc3F)ccc2S(=O)(=O)N([C@H](C)CO)C[C@@H]1C	5.0	·	56.6	0.0	·	-3.1	·	·

Ordered by SMILES length (highest first): part of the list above
SMILES	ERp5 block	PDI turbidity	S100A4 inh HTS	FGF22 binding-1	UUG fidelity	SIRT5 inh	FGF22 binding-2	TSA no protein	others
C[C@@H]1CN([C@H](C)CO)C(=O)c2cc(NS(C)(=O)=O)ccc2O[C@@H]1CN(C)Cc1ccc(Cl)c(Cl)c1	7.9	·	-3.9	0.1	-2.6	-0.4	·	·
CCNC(=O)C[C@@H]1CC[C@H]2[C@@H](COC[C@H](O)CN2C(=O)CC)O1	-2.8	·	-25.0	0.0	-7.9	-2.2	·	·
Cc1cccc2cc(/C=N/NC(=O)c3ccccc3O)c(Cl)nc12	-2.1	-7.6	-7.2	-0.4	·	7.7	·	·
CCCCNC(=O)COCc1cc(-c2ccc3c(c2)OCO3)on1	0.4	11.3	-21.5	0.1	-13.6	-2.0	·	·
CCCNC(=O)COCc1cc(-c2ccc3c(c2)OCO3)on1	-0.8	-6.3	-2.4	29.4*	-10.2	3.5	0.022	i
